Measured affinities in a library of Ab-14 heavy chain variants

Antigen: PDVDLGDISGINAS, a 14-residue peptide of the SARS-CoV-2 spike HR2 region.

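This is the validation round: designs drawn from the data on random variants, tested in the same kind of assay. Several design methods are mixed in this list. AlphaSeq pools MATa yeast showing the antibodies with MATalpha yeast showing the peptide. Mating (16 h, 30 °C) was followed by selection of diploids and sequencing of their barcodes. The ratio of observed to expected reads was calibrated, replicate by replicate, on BCL2-family standards whose Kd was known from biolayer interferometry. Mating was done six times.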

Ab-14 is the parent antibody, in scFv form: VH, then a (GGGGS)3 linker, then VL. The light chain is unchanged in all variants.
VH: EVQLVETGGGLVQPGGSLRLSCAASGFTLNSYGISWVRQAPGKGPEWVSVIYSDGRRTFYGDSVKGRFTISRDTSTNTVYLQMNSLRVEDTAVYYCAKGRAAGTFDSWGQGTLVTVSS
VL: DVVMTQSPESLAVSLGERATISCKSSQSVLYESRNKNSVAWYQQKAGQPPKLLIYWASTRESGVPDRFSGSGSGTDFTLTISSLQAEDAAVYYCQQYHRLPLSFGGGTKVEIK

Positions count from residue 1 of the parent VH; T28S puts S in place of T.
Variants here have at most six changes.
Kd is apparent (estimated from mating counts) and averaged on the log scale over replicates with a signal. Smaller is tighter.
A pair that was not seen in any replicate is written "no signal"; this usually means weak binding, but a binder can also be missed.
Order: sorted from the lowest average up, undetected variants last.
Of ten entries with the parent sequence, four were seen in most replicates (averages 2.2 nM to 240 nM), three in one and three in none, so single entries are noisy.
In the paper, a design with two or fewer of six values counts as a poor binder.
A sequence measured in both rounds can read differently, since the two assays cover different ranges.
Nonspecific signal, from three strains lacking the peptide, appeared in 1% of pairings of all heavy chain designs, centred on 120 nM (5% of these signals below 7.0 nM); values are not corrected for it. Also given: how often the same scFv was detected with the empty control strains.
Some sequences occur more than once in the pool; their replicates are pooled.

* T28S/R100K/A101T/S107Y = 39 pM (3 of 6 replicates; controls 0 of 18)
* T28S/S31E/S53A/R100T = 240 pM (6 of 6 replicates; controls 1 of 18)
* T28S/S31E/G103V = 430 pM (6 of 6 replicates; controls 0 of 18)
* S31D/G61S/S63A/A101T = 430 pM (6 of 6 replicates; controls 1 of 18)
* T28S/S31Q/R100E = 550 pM (6 of 6 replicates; controls 0 of 18)
* T28S/G61A/S63D/R100K/A101E = 620 pM (6 of 6 replicates; controls 0 of 18)
* N30D/S31E = 1.2 nM (6 of 6 replicates; controls 1 of 18)
* S31E/G61S/S63A/A101E = 1.3 nM (6 of 6 replicates; controls 0 of 18)
* T28D/R56K/G61I/A101Q = 1.4 nM (6 of 6 replicates; controls 0 of 18)
* T28D/G61A/S63R/R100K/A101T = 1.5 nM (6 of 6 replicates; controls 0 of 18)
* T28V/S53A/A101L = 1.6 nM (6 of 6 replicates; controls 0 of 18)
* T28S/G61A/S63N/A101T/S107A = 1.7 nM (6 of 6 replicates; controls 0 of 18)
* S31D = 2.2 nM (7 of 12 replicates; controls 1 of 36)
* T28S/S31E/R100N = 2.2 nM (5 of 6 replicates; controls 0 of 18)
* T28D/R56K/G61A/R100N = 2.4 nM (6 of 6 replicates; controls 1 of 18)
* T28E/R56K/G61A/A101N = 2.7 nM (6 of 6 replicates; controls 0 of 18)
* S31E/R56L/F59W = 2.7 nM (6 of 6 replicates; controls 0 of 18)
* T28G/G61I/R100Q/A101T = 3.1 nM (6 of 6 replicates; controls 0 of 18)
* S31E/A101T/D106E = 3.4 nM (6 of 6 replicates; controls 0 of 18)
* T28S/G61A/R100T/A101E = 3.9 nM (5 of 6 replicates; controls 0 of 18)
* S31M/F59A/R100F = 4.4 nM (6 of 6 replicates; controls 0 of 18)
* T28D/R56K/G61V/A101Q = 5.8 nM (6 of 6 replicates; controls 0 of 18)
* N30E/R56K = 5.9 nM (6 of 6 replicates; controls 0 of 18)
* T28S/S31N/R100K = 11 nM (6 of 6 replicates; controls 0 of 18)
* N30D/A101T/S107K = 12 nM (6 of 6 replicates; controls 0 of 18)
* N30E/S53A/S107A = 13 nM (6 of 6 replicates; controls 0 of 18)
* G26Y/T28D/R100K/A101N = 16 nM (4 of 6 replicates; controls 0 of 18)
* G26K/T28S/G61A/A101T = 18 nM (1 of 6 replicates; controls 0 of 18)
* T28N/K65R = 19 nM (4 of 6 replicates; controls 0 of 18)
* R100S/A101I = 22 nM (6 of 6 replicates; controls 0 of 18)
* T28S/G61Q/A101W = 22 nM (5 of 6 replicates; controls 0 of 18)
* T28E/R100K/A101S = 24 nM (3 of 6 replicates; controls 0 of 18)
* T28E/G61H/D106S = 28 nM (1 of 6 replicates; controls 0 of 18)
* S31Q/S35D/G61S/V64A/T104F = 29 nM (1 of 6 replicates; controls 0 of 18)
* T28S/R100K/S107V = 53 nM (1 of 6 replicates; controls 0 of 18)
* S31D/G61S/G103V = 67 nM (1 of 6 replicates; controls 1 of 18)
* G61D/A101Q = 70 nM (4 of 6 replicates; controls 0 of 18)
* S31D/R100K/D106T = 180 nM (1 of 6 replicates; controls 0 of 18)
* T28D/R56K/G61D/R100K = 1.1 µM (1 of 6 replicates; controls 1 of 18)
* S31E/D62Q/G103V/S107T = no signal (0 of 6 replicates; controls 0 of 18)
* S31Q/S35E/G61S/T104F = no signal (0 of 6 replicates; controls 0 of 18)
* G61S/R100K/S107R = no signal (0 of 6 replicates; controls 0 of 18)
* S31D/I51Q/R56Y/F59Q/G61I = no signal (0 of 6 replicates; controls 0 of 18)
* T28N/N30L/S31E/T104P = no signal (0 of 6 replicates; controls 1 of 18)
* T28E/G61V/A101T = no signal (0 of 6 replicates; controls 0 of 18)
* L29N/S31D/A101S/S107Q = no signal (0 of 6 replicates; controls 0 of 18)
* S31D/G99I = no signal (0 of 6 replicates; controls 0 of 18)
* N30R/F59W/K65R/R100H/S107D = no signal (0 of 6 replicates; controls 0 of 18)
* G55I/D106S = no signal (0 of 6 replicates; controls 0 of 18)
* F59S/S107H = no signal (0 of 6 replicates; controls 0 of 18)
* S31E/G61H/D106I = no signal (0 of 6 replicates; controls 0 of 18)
* N30D/S53A/D106M = no signal (0 of 6 replicates; controls 0 of 18)

From the list, the first 4 with no signal in any replicate:

changes	Kd (apparent)	detected	control signals
S31E/D62Q/G103V/S107T	no signal	0/6	0/18
S31Q/S35E/G61S/T104F	no signal	0/6	0/18
G61S/R100K/S107R	no signal	0/6	0/18
S31D/I51Q/R56Y/F59Q/G61I	no signal	0/6	0/18

Reference: Li et al. 2023, doi:10.1038/s41467-023-39022-2. File: FLAb, binding data.